Test system: p-SMAD2
Experiment: p-SMAD2 inhibition, Western Blot Analysis in TGFβ-stimulated MDA-MB-231 cells
Type: cell-based

SMILES | Average p-SMAD2 inhibition @ 0.5 μM (% Inh) | Average p-SMAD2 inhibition @ 0.1 μM (% Inh)
CC(C)c1cnc(-c2cc(Cl)ccc2F)cc1Nc1ccncc1C(=O)NCCN [compound 19, N-(2-aminoethyl)-4-[[2-(5-chloro-2-fluoro-phenyl)-5-isopropyl-4-pyridyl]amino] pyridine-3-carboxamide] | 93.00 % Inh | –
C=C(C)c1cnc(-c2cc(Cl)ccc2F)cc1Nc1ccncc1C(=O)N[C@@H](CO)C(C)C [25a, 4-[[2-(5-chloro-2-fluoro-phenyl)-5-vinyl-4-pyridyl]amino]-N-[(1R)-1-(hydroxymethyl)-2-methyl-propyl]pyridine-3-carboxamide] | 18.67 % Inh | 15.33 % Inh
C=C(C)c1cnc(-c2cc(Cl)ccc2F)cc1Nc1ccncc1C(=O)N[C@H](CO)C(C)C [25b, 4-[[2-(5-chloro-2-fluoro-phenyl)-5-vinyl-4-pyridyl]amino]-N-[(1S)-1-(hydroxymethyl)-2-methyl-propyl]pyridine-3-carboxamide] | 12.67 % Inh | 14.33 % Inh
C=C(C)c1cnc(-c2cc(Cl)ccc2F)cc1Nc1ccncc1C(=O)NCCO [compound 26, 4-[[2-(5-chloro-2-fluoro-phenyl)-5-isopropenyl-4-pyridyl]amino]-N-(2-hydroxyethyl)pyridine-3-carboxamide] | 89.00 % Inh | 64.00 % Inh
C=C(C)c1cnc(-c2cc(Cl)ccc2F)cc1Nc1ccncc1C(=O)NC[C@H](C)O [3a, (S)-4-(2-(5-chloro-2-fluorophenyl)-5-(prop-1-en-2-yl)pyridin-4-ylamino)-N-(2-hydroxypropyl)pyridine-5-carboxamide] | 78.00 % Inh | 45.67 % Inh
C=C(C)c1cnc(-c2cc(Cl)ccc2F)cc1Nc1ccncc1C(=O)N[C@@H](CC)CO (single isomer, unassigned) [24a] | 68.33 % Inh | 17.00 % Inh
C=C(C)c1cnc(-c2cc(Cl)ccc2F)cc1Nc1ccncc1C(=O)N[C@H](C)CO [7b, (2R)-4-[[2-(5-chloro-2-fluoro-phenyl)-5-isopropenyl-4-pyridyl]amino]-N-(2-hydroxy-1-methyl-ethyl)pyridine-3-carboxamide] | 78.67 % Inh | 36.33 % Inh
CC(C)c1cnc(-c2cc(Cl)ccc2F)cc1Nc1ccncc1C(=O)NC(CO)CO [compound 22, 4-[[2-(5-chloro-2-fluoro-phenyl)-5-isopropyl-4-pyridyl]amino]-N-[2-hydroxy-1-(hydroxymethyl)ethyl]pyridine-3-carboxamide] | – | 50.00 % Inh
C=C(C)c1c(Nc2ccncc2C(=O)NC[C@H](C)O)cc(-c2cc(Cl)ccc2F)nc1N (single isomer, unassigned) [23a] | 93.67 % Inh | 46.33 % Inh
COC(C)(C)c1cnc(-c2cc(Cl)ccc2F)cc1Nc1ccncc1C(=O)NCC(C)O (single isomer, unassigned) [17a, 4-[[2-(5-chloro-2-fluoro-phenyl)-5-(1-methoxy-1-methyl-ethyl)-4-pyridyl]amino]-N-(2-hydroxypropyl)pyridine-3-carboxamide] | 81.67 % Inh | 25.33 % Inh
CC(=O)NCCNC(=O)c1cnccc1Nc1cc(-c2cc(Cl)ccc2F)ncc1C(C)C [compound 14, N-(2-acetamidoethyl)-4-[[2-(5-chloro-2-fluoro-phenyl)-5-isopropyl-4-pyridyl]amino]pyridine-3-carboxamide] | – | 45.00 % Inh
